Data reported in US20230309554A1, “Polymer Carriers for Delivery of Agrochemicals in Crop Plants” (Carnegie Mellon University, priority 2020, published 2023).

Tested on: tomato plants
Set-up: species or system Solanum lycopersicum
Conditions: in vivo
Experimental: Plant growth. […] The sterilized seeds were germinated in petri-dish on water-soaked filter paper under dark for 10 days. Afterwards, the seedlings were transplanted to 100 mL plastic cups. Each seedling was grown hydroponically using 1⁄4 strength Hoagland's solution aerated using air pumps. […] Leaf carbon assimilation rate and chlorophyll fluorescence. Plant leaf carbon assimilation and chlorophyll fluorescence was measured by a Li-Cor Li-6800 portable photosynthesis system. […] Combined heat and excess light stress. The carbon (A-Ci) and light response (A-PAR) curves of treated leaves were measured before stress conditions. […] The carbon and light response curves were measured again and compared with the curve acquired before stress. […] Light adapted ([…]) chlorophyll fluorescent test were also performed before and after stress conditions. The A-Ci curves were analyzed according to previously reported model for C3 plants: […]

Substance: poly(acrylic acid)-block-poly((2-(methylsulfinyl)ethyl acrylate)-co-(2-(methylthio)ethyl acrylate)) [PAA25-b-P(MSEA75-co-MTEA50)]
- Plant toxicity (photosynthetic activity before stress): did not induce plant toxicity
